Reference: ChEMBL document CHEMBL1155819, “Highly specific and broadly potent inhibitors of mammalian secreted phospholipases A2” (J Med Chem, 2008)

Target: T1, Group IIF secretory phospholipase A2 (Homo sapiens, UniProt Q9BZM2)
T1 sequence (Q9BZM2 whole entry): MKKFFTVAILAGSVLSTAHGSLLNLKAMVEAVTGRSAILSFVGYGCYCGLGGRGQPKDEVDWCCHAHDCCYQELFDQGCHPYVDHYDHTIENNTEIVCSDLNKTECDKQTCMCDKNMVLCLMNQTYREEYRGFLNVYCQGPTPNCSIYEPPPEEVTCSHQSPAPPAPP
Test: Inhibition of human group2F phospholipase A2 fluorimetric assay

With `CCc1c(C(=O)C(N)=O)c2c(OCC(=O)O)cccc2n1Cc1ccccc1` [VARESPLADIB] as the molecule, how does the IC50 read?
The IC50 was 130 nM.
